Among the data in BindingDB's records for doi:10.1124/mol.54.2.322 (Georgetown University, 1998) are Ki values, retold here.

By UniProt entry, the sequences of proteins in these tests, tags left out.
UniProt P04757, whole entry: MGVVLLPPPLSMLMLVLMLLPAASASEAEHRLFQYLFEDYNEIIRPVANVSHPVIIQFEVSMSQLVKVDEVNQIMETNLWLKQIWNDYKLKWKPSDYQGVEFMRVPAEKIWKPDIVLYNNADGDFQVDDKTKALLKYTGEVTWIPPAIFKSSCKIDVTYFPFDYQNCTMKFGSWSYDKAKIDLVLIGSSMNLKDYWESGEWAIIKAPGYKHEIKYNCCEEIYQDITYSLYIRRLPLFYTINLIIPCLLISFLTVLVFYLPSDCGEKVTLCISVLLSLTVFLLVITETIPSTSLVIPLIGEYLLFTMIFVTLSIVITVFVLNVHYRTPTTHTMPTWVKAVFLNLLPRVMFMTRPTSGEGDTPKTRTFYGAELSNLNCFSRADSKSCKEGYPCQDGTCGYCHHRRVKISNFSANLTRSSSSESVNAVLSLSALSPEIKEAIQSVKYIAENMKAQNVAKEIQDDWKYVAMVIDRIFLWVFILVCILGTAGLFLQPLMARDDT

Structures are written as SMILES. Bounds are passed on as bounds.

For the assay, the target named is Neuronal acetylcholine receptor subunit alpha-3 (Rattus norvegicus, UniProt P04757).

As a reminder, the Ki is a dissociation constant, usually derived from enzyme kinetics or from competition with a known ligand. A high value points to a looser hold on the target. In the case of `CNC1(C)C2CCC(C2)C1(C)C` (stereo unspecified) [Methyl-(2,3,3-trimethyl-bicyclo[2.2.1]hept-2-yl)-amine(Mecamylamine)], the Ki is > 10 µM.
